The target of this test is T1, wild-type CysLT1R (Homo sapiens, UniProt Q9Y271).
T1 construct: expressed in transfected cells; host or cells: HEK293 (ATCC CRL-1573), transient transfection with Lipofectamine 3000
T1 sequence (Q9Y271 1-337): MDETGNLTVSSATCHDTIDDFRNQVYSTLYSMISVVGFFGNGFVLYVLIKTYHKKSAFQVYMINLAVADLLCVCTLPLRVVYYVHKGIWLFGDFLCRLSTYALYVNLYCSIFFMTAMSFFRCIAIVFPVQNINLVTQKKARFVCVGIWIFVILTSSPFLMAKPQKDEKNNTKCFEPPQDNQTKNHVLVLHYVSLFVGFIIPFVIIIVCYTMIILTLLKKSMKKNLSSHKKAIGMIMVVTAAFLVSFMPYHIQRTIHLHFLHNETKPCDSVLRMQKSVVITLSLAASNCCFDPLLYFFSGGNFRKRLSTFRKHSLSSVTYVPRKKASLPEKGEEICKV
Briefly: IP1 production assay, antagonist mode, co-stimulation with EC80 LTD4. Format: cell-based. How it is done:
For this assay, we used the Cisbio IP-One kit as previously described. […] At 48 h post-transfection, the media was removed and the cells were washed with fresh Hank’s Balanced Salt Solution (HBSS). […] After compound stimulation, the cells were incubated for 1 h at 37 °C and stimulated with IP1-D2 and Ab-Crypt reagents in Lysis Buffer. The cells were then incubated at room temperature for an additional hour. […] Normalized data were plotted using either the three-parameter or four-parameter EC50/IC50 fits of GraphPad Prism 8 (San Diego). […] Data represent the means ± SEM of at least three independent experiments performed in quadruplicate.

Structures are written as SMILES. Read-outs that look alike come from different tables or passages of the source.

Take `O=C(O)c1cc(S(=O)(=O)N2CC=C(c3ccccc3)CC2)ccc1O` [BRI-12324]: the remaining activity at 30 µM by setting is: (read-out: CysLT1R, % IP1 production at 30 µM, Mean) 82.1%; (read-out: CysLT1R, % IP1 production at 30 µM, mean) 82.1%.

Values taken from publication PMC7761830, “Structure-Based Virtual Screening of Ultra-Large Library Yields Potent Antagonists for a Lipid GPCR” (Biomolecules, 2020).
